“And” between values parts separate entries of the source, which are not always exact repeats. Equal values may be shown once.
Experiments:
Assay in all cases: Phosphoprotein kinetic profiles in bone marrow samples from healthy donors
Assay type in all cases: cell-based, human
Settings in all cases: CD34^+, CD117^+ cells, healthy donor samples
[1] = test system: pERK
Method: (§1) Phosphoprotein kinetic profiles were analyzed in bone marrow aspiration samples from nine healthy, adult donors (i.e., normal bone marrow or NBM) and from five AML patients. Samples from healthy donors included 5 males and 4 females, ranging in age from 26 to 49 years. Approximately 10 to 20 mL of bone marrow (BM) samples were collected from the posterior iliac crest of the volunteers using IRB approved protocols. The BM samples were filtered using a 40 μm Nylon cell strainer to remove marrow particles and the white blood cell concentration determined using a blood analyzer. […] The samples were immediately used for subsequent experimentation.
(§2) To assess the signal transduction response after growth factor simulation, 100 to 200 μL of processed samples including about 2×10^6 WBC/100 μL were added to tubes and incubated at 37° C. for 30 minutes. For inhibition experiments, cells were incubated with 100 μM U0126, 1 μg/mL rapamycin, or both for at least 20 minutes prior to cytokine addition and in all cases for 30 min prior to formaldehyde addition. […] After stimulation the cells were immediately fixed by the addition of formaldehyde to a final concentration of 4% v/v and incubated for 10 minutes at room temperature. Following fixation, red blood cells were lysed by the addition of TRITON-X/PBS solution (0.1% v/v final concentration Triton X-100) supplemented with a 1 x phosphatase inhibitor cocktail (PIC; final concentrations: 0.2 mM sodium orthovanadate, 2 mM sodium pyrophosphate decahydrate, 2 mM [3-glycerophosphate, and 10 mM sodium fluoride) and incubation at 37° C. for 20 minutes. The incubated solution was chilled by the addition of ice-cold Wash Buffer (final concentration 1×PBS and either 4% bovine serum albumin (BSA) or 4% heat-inactivated fetal bovine serum (FBS), supplemented with 1×PIC), and the samples were centrifuged at 300 g for 6 minutes at 4° C.). If the lysis was incomplete, samples were retreated with 0.1% Triton X-100 at 37° C. for 10 to 20 minutes. […]
(§3) To stain cells with fluorescent conjugated monoclonal antibodies, the incubated solution was centrifuged to remove the supernatant and the pellet was incubated for 60 minutes at 4° C. with an antibody staining solution including 0.25 μg to 0.50 μg of pS6-Pacific Blue, pERK-ALEXA 488, pSTAT5-ALEXA 647, CD34-PE, CD45-PerCP, and CD117-PC7. Samples were washed three times with ice-cold Wash Buffer supplemented with 1×PIC, resuspended in 0.5 mL ice-cold Wash Buffer supplemented with 1×PIC including 0.5 μg/mL DAPI, and analyzed by flow cytometryusing a BD LSR II Flow Cytometer, equipped with a High Throughput Sampler (HTS). […]

[2] = test system: pS6
Method: as §1, §2, §3

[3] = test system: pSTAT5
Method: Phosphoprotein kinetic profiles were analyzed in bone marrow aspiration samples from nine healthy, adult donors (i.e., normal bone marrow or NBM) and from five AML patients. Samples from healthy donors included 5 males and 4 females, ranging in age from 26 to 49 years. Approximately 10 to 20 mL of bone marrow (BM) samples were collected from the posterior iliac crest of the volunteers using IRB approved protocols. The BM samples were filtered using a 40 μm Nylon cell strainer to remove marrow particles and the white blood cell concentration determined using a blood analyzer. The samples contained approximately 7 to 31 million white blood cells (WBCs) per mL. The samples were immediately used for subsequent experimentation. […]
as §3

B1: Interleukin- 3 (protein, UniProt P08700 20-152, looked up)
Interleukin-3: APMTQTTPLKTSWVNCSNMIDEIITHLKQPPLPLLDFNNLNGEDQDILMENNLRRPNLEAFNRAVKSLQNASAIESILKNLLPCLPLATAAPTRHPIHIKDGDWNEFRRKLTFYLKTLENAQAQQTTLSLAIF
notes: colony-stimulating cytokine
pERK Amp (peak amplitude of fold stimulation) [1]: 6.9 and 6.9 ± 2.4 | pERK RI (response interval) [1]: Variable | pS6 Amp (peak amplitude of fold stimulation) [2]: 4.2 and 4.2 ± 1.0 | pS6 RI (response interval) [2]: Variable | pSTAT5 Amp (peak amplitude of fold stimulation) [3]: 38 and 38 ± 12 | pSTAT5 RI (response interval) [3]: >60 min
